Source: patent US6969702B2, “Compounds and methods for increasing neurogenesis” (priority 2002, dated 2005)

What was measured:
[1] = test system: NFAT-Luciferace reporter (Ca^2+); details: Table 4; 15 nM; 24 hours after induction
[2] = test system: mouse adult neural stem cells; experiment: ATP-assay: proliferation (ATP levels) of neurosphere-derived cells; details: Table 4; 100 nM

CC(C)C[C@H](NC(=O)CNC(=O)[C@H](C)NC(=O)[C@H](CC(C)C)NC(=O)[C@H](CCCNC(=N)N)NC(=O)[C@H](Cc1c[nH]cn1)NC(=O)[C@@H](NC(=O)[C@@H](N)C(C)C)[C@@H](C)O)C(=O)N[C@@H](CC(C)C)C(=O)N[C@@H](CO)C(=O)N[C@@H](CCCNC(=N)N)C(=O)N[C@@H](CO)C(=O)NCC(=O)NCC(=O)N[C@H](C(=O)N[C@H](C(=O)N[C@@H](CCCCN)C(=O)N[C@@H](CC(N)=O)C(=O)N[C@@H](CC(N)=O)C(=O)N[C@@H](Cc1ccccc1)C(=O)N[C@H](C(=O)N1CCC[C@H]1C(=O)N[C@H](C(=O)N[C@@H](CC(N)=O)C(=O)N[C@H](C(=O)NCC(=O)N[C@@H](CO)C(=O)N[C@@H](CCCCN)C(=O)N[C@@H](C)C(=O)N[C@@H](Cc1ccccc1)C(N)=O)C(C)C)[C@@H](C)O)C(C)C)C(C)C)C(C)C [CGRP (8-37)]
NFAT Luciferace units [1]: 28.3 ± 1.1 Luciferace units | ATP (nM ATP/well) [2]: 10.4 ± 0.5 nM ATP/well
